Experimental data taken from article PMC10362907.

System: NC(=O)C1=CN([C@@H]2O[C@H](COP(=O)(O)OP(=O)(O)OC[C@H]3O[C@@H](n4cnc5c(N)ncnc54)[C@H](O)[C@@H]3O)[C@@H](O)[C@H]2O)C=CC1
Assay: purified protein
Conditions: 1 mM cyclohexanone, 50 mM Tris-Cl pH 9.0, 25 °C

Substance	Km (variant DTNP)	kcat (variant DTNP)	kcat/Km (variant DTNP)	Km (variant DTNPY)	kcat (variant DTNPY)	kcat/Km (variant DTNPY)
Ac CHMO (CHMO WT) (Acinetobacter johnsonii; K326T/K349N/L143P/S208D)	2790 ± 430 µM	2.46 s⁻¹	880 M⁻¹ s⁻¹			
Ac CHMO (CHMO WT) (Acinetobacter johnsonii; H163Y/K326T/K349N/L143P/S208D)				2810 ± 210 µM	5.08 s⁻¹	1810 M⁻¹ s⁻¹
